Laboratory results as given in patent publication US20100215741A1, “PHARMACEUTICAL COMPOUNDS” (priority 2009, published 2010).

Chains of the proteins cited; added tags and fusions are not shown. Lines headed by an entry give the natural chain unless they say otherwise; changes in a name come on top.
UniProt P47746, whole entry: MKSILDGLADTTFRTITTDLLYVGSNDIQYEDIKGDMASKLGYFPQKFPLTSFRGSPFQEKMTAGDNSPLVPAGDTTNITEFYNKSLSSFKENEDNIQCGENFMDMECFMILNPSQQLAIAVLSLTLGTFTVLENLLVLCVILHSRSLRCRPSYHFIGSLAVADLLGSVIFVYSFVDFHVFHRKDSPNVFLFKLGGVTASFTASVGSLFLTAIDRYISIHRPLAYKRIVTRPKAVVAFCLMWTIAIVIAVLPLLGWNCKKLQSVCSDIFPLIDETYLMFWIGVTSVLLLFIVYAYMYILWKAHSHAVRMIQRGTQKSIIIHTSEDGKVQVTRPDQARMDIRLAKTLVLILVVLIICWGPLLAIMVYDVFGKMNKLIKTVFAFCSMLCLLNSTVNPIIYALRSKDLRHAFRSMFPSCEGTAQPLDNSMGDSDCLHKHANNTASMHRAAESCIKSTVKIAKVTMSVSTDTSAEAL
UniProt P47936: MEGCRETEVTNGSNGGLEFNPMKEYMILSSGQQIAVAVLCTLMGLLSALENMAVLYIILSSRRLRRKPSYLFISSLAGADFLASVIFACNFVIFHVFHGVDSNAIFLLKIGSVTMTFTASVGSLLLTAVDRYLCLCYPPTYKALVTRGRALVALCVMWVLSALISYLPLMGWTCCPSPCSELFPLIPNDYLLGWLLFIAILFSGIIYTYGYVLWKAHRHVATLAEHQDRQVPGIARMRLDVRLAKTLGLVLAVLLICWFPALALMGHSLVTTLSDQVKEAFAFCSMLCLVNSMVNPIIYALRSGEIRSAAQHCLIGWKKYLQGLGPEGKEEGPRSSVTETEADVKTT

Legend:
CB1 receptors = target: T1, CB1 receptors (Mus musculus, UniProt P47746); assay: radioreceptor binding, displacement of [3H]-CP-55,940, CB1 (brain); conditions: read-out: CB1 (brain) Ki; mouse brain membranes, 1 nM [3H]-CP55.940, 1 hour at 30° C.
T1 construct: the complete brain (excluding the cerebellum) and the spleen were quickly dissected and kept in ice; from tissue; host or cells: mouse brain (excluding the cerebellum), membrane preparation
Method: (§1) The affinity of the compounds towards the CB1 and CB2 cannabinoidergic receptors was evaluated in vitro by radioreceptor binding studies using the following method.
(§2) The technique of the receptor binding allows to establish if, and with which affinity and specificity, a specific compound binds to a particular receptor. To evaluate the affinity of a specific compound to a particular receptor it is necessary to challenge in a particular tissue preparation wherein those specific receptors are present the compound to be tested with a radioactive labelled compound whose affinity for the same receptors is known. […] The amount of radioactivity present in the receptor-compound complex allows furthermore to stimate with great accuracy the amount of compound bound to the receptor. By said method it is therefore possible to stablish quickly the affinity of a new compound towards a specific receptor and thus to determine its pharmacological activity. […]
(§3) The thus obtained membranes (50-80 μg of proteins) were incubated in the presence of 1 nM of [^3H]-CP55.940 for 1 hour at 30° C. in a final volume of 0.5 ml of TME buffer containing […] (BSA). The non specific binding was measured in the presence of CP55.940 at a 1 μM concentration. […]
(§4) The radioactivity present in the filters was determined by a scintillator spectrophotometer (Tricarb® 2100, Packard, Meridien, USA). […]

CB2 receptors = target: T2, CB2 receptors (Mus musculus, UniProt P47936); assay: radioreceptor binding, displacement of [3H]-CP-55,940, CB2 (spleen); conditions: read-out: CB2 (spleen) Ki; mouse spleen membranes, 1 nM [3H]-CP55.940, 1 hour at 30° C.
T2 construct: the complete brain (excluding the cerebellum) and the spleen were quickly dissected and kept in ice; from tissue; host or cells: mouse spleen, membrane preparation
Method: as §1, §2, §3, §4

SR144528 [reference compound] was tested, and the Ki (CB1 receptors) was 70 ± 10 nM and the Ki (CB2 receptors) was 0.28 ± 0.04 nM.
